In patent US20180185347A1, “TETRAHYDROCYCLOPENTA[B]INDOLE COMPOUNDS AND PHOSPHODIESTERASE INHIBITORS FOR THE TREATMENT OF THE SIGNS AND SYMPTOMS OF BHP” (Transition Therapeutics (Ireland 2) Limited, priority 2016, published 2018):

Assay: Dog toxicology program: exposure (AUC0-24)
Settings: male, in vivo

CC(C)OC(=O)N[C@H]1Cc2c(n(Cc3ccccn3)c3ccc(C#N)cc23)C1 [compound of Formula II, (S)-(7-cyano-4-pyridin-2-ylmethyl-1,2,3,4-tetrahydro-cyclopenta[b]indol-2-yl)-carbamic acid isopropyl ester]
AUC(0-t) (3 mg/kg/day): 3640 ng·h/mL
AUC(0-t) (150 mg/kg/day): 53000 ng·h/mL
